## Ab-14 heavy chain CDR variants: yeast mating affinities

Values reported by Engelhart et al. 2022, doi:10.1038/s41597-022-01779-4 (FLAb copy).

Antigen: PDVDLGDISGINAS, a 14-residue peptide of the SARS-CoV-2 spike HR2 region.

Each scFv is VH, three GGGGS repeats, VL, as in the parent Ab-14, and differs from it in the CDRs of the heavy chain only.
VH: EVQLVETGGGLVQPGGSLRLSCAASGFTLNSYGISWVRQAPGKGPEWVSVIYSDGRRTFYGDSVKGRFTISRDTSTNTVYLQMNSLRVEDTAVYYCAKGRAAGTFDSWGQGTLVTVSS
VL: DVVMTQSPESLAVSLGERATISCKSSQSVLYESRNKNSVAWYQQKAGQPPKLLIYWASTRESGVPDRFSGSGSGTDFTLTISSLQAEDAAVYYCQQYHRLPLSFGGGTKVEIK

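Variants in AAYL49 differ from the parent at up to three CDR positions; double and triple changes were sampled at random. In AlphaSeq, yeast of one mating type display the scFv and yeast of the other type display the target. Pairs that bind mate more often; barcode pairs of the diploids are counted by sequencing. The ratio of observed to expected reads was calibrated, replicate by replicate, on BCL2-family standards whose Kd was known from biolayer interferometry. Each pool was mated in three replicate cultures.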

Variants are written as CDR1, CDR2 and CDR3 of the heavy chain (limits as in the source). Parent: GFTLNSYGIS, VIYSDGRRTFYGDSVK, GRAAGTFDS.
Every variant below is changed at D106 of the VH (sequential numbering).
Each Kd is an estimate from the mating assay, the geometric mean of the replicates in which the pair was seen; lower is stronger.
Where no diploid with the target was found in any replicate, the entry reads "nd": below detection, most likely a poor binder, though not proof of it.

GFTLFSYGIS, VIYSDGRRKFYGDSVK, GRAAGTFTS: nd (0 of 3 replicates).
GFTLNSYGIS, VIYSVGRRTFWGDSVK, GRAAGTFPS: nd (0 of 3 replicates).
GFTLNIYGIS, VIYSDGRRTFYGDSVK, GRAAGRFFS: 490 nM (2 of 3 replicates).
GFTLNSYGIS, VIYSTGQRTFYGDSVK, GRAAGTFYS: 790 nM (1 of 3 replicates).
GFTLNWYGIS, VIYSDGRRHFYGDSVK, GRAAGTFMS: nd (0 of 3 replicates).
GFTLNSYGIS, VIYSDGRRTFYGDSVK, PRAAGTCWS: 450 nM (3 of 3 replicates).
GFTLNSYGIS, VIYSDGRRTFPGDSVK, GRAAGTKSS: 170 µM (2 of 3 replicates).
GFTLNSYGIS, VIYSDGRRFFYGDSVK, GRACGTFCS: 510 nM (1 of 3 replicates).
GFTLNSYGIS, VIKSDGRRNFYGDSVK, GRAAGTFLS: 340 µM (3 of 3 replicates).
GKTLDSYGIS, VIYSDGRRTFYGDSVK, GRAAGTFAS: 75 nM (3 of 3 replicates).
GFTLNSYGIA, VIYSDGRRTFYGDSVK, GRWAGTFGS: 11 µM (1 of 3 replicates).
GFTLNSYGIS, VIYCDGRRTFYGDSVK, GRAAGAFSS: nd (0 of 3 replicates).
GFTLNSYGIS, VIYSDGRRTFYGDSGK, GRAAGTDWS: nd (0 of 3 replicates).
GFTMNSYGIS, VIYSDGRRTFYADSVK, GRAAGTFFS: 11 nM (3 of 3 replicates).
GFTLNSYGIS, VIYSDGRRTFYGDSWK, GQAAGTFYS: nd (0 of 3 replicates).
GSTLNSYGIS, VIYSDGRRTFYGDSVE, GRAAGTFLS: 1.4 µM (1 of 3 replicates).
QFTLNSYGIL, VIYSDGRRTFYGDSVK, GRAAGTFVS: nd (0 of 3 replicates).
GDTLYSYGIS, VIYSDGRRTFYGDSVK, GRAAGTFQS: nd (0 of 3 replicates).
GFTLESYGIS, VIYSDGRRTFYGDSVK, QRAAGTFMS: 3.0 nM (3 of 3 replicates).
GKTLNSYGIS, VIYSDGRRTFYGDSYK, GRAAGTFLS: 3.7 µM (1 of 3 replicates).
GFHLNSYGIS, VIYSDGRRTFYGDSAK, GRAAGTFLS: 240 nM (3 of 3 replicates).
GFTLNSYGIS, VIYSDGRRTFYGDSVK, GRAMGTFWV: 11 nM (3 of 3 replicates).
GFTLNSYGIS, VIYSDHRRDFYGDSVK, GRAAGTFLS: nd (0 of 3 replicates).
GFTLNSYGIS, VIYSRGRRTFYGDSVK, GRAAGDFLS: nd (0 of 3 replicates).
GFTLNSYGIN, VIYSDGRRTFAGDSVK, GRAAGTFPS: nd (0 of 3 replicates).
GFTLNSYGIE, VIYSDGRRTFYGDSVK, GRAAGTFIS: nd (0 of 3 replicates).
GFTDNSYGIS, VIYSDGRRTFYGDSVK, GRALGTFGS: 450 nM (1 of 3 replicates).
YFTLNSYGIS, VIYSDGRRTFYIDSVK, GRAAGTFPS: nd (0 of 3 replicates).
GFTLNSYGIS, VIYSDGRRTFYGMSVK, GRAAGTFCS: 4.0 µM (1 of 3 replicates).
GFTMNSYGIS, VIYSDGRRTFYGDEVK, GRAAGTFCS: 1.2 µM (1 of 3 replicates).
GFTLNSYGIS, VINSDGRRTFYGDSVK, GRAAGTFML: 3.5 µM (2 of 3 replicates).
LFTLNSYGIS, VIYSDGRRTFYGDSVK, GRAAGTRFS: 230 µM (1 of 3 replicates).
IFTLNSYGIS, VIYSDGRRTFYGDSVS, GRAAGTFVS: nd (0 of 3 replicates).
GFTLNSYGIS, VIYSDGRRTFYCDSVK, GIAAGTFQS: 84 µM (2 of 3 replicates).
GFTLNSYGIS, VIYSDGRRTFYGDSVK, GRAYGTVVS: 16 nM (3 of 3 replicates).
GFTLNSYGIS, HIYSDGRRIFYGDSVK, GRAAGTFSS: nd (0 of 3 replicates).
GFTLNSYGIS, VIYSDGRRTFYGDSVK, GPAAGTFWD: 87 nM (3 of 3 replicates).
GFTLNWYGIS, VIYSDGRRTFYGDSQK, GRAAGTFQS: nd (0 of 3 replicates).
DFTLNSYGIS, VIYSDGRRTFYGDSYK, GRAAGTFFS: nd (0 of 3 replicates).
GFTLNSYGIS, VIYSDGRNTFYIDSVK, GRAAGTFNS: 1.1 µM (3 of 3 replicates).
GFTLNSYGIS, VIYSDGRRTFYGDSVK, LFAAGTFNS: nd (0 of 3 replicates).
GFTLNSYGIS, VIYSDGRRTFYGDSTK, GRQAGTFTS: 5.0 µM (3 of 3 replicates).
GFTLNSYGIS, VIYSDGRRTFYGDSVK, GRARQTFHS: nd (0 of 3 replicates).
GFTSNSYGIS, VIYSDGRRTFYGDSVK, SRAAGTFMS: nd (0 of 3 replicates).
GFTLNSYGIS, VIYSDGRETFYGDSVK, GRAAGTFVS: nd (0 of 3 replicates).
GLTLNSYGIS, VIYSDGRRTFYGDSVK, GRAAGMFQS: 43 nM (3 of 3 replicates).
GFTLNSYGIT, VIYSDGRRTFMGDSVK, GRAAGTFGS: 430 nM (1 of 3 replicates).
GFTLNSYLIS, VIYSDGRRTFYGDRVK, GRAAGTFKS: nd (0 of 3 replicates).

Extract of 7 entries:

With GFTLNSYGIE, VIYSDGRRTFYGDSVK, GRAAGTFIS the result was nd (0 of 3 replicates).
With GFTLNSYGIS, VIYSDHRRDFYGDSVK, GRAAGTFLS the result was nd (0 of 3 replicates).
With GFTLNSYGIS, VIYCDGRRTFYGDSVK, GRAAGAFSS the result was nd (0 of 3 replicates).
With GFTLNSYLIS, VIYSDGRRTFYGDRVK, GRAAGTFKS the result was nd (0 of 3 replicates).
With YFTLNSYGIS, VIYSDGRRTFYIDSVK, GRAAGTFPS the result was nd (0 of 3 replicates).
With LFTLNSYGIS, VIYSDGRRTFYGDSVK, GRAAGTRFS the result was 230 µM (1 of 3 replicates).
With GFTLNSYGIS, VIYSDGRRTFYGDSVK, PRAAGTCWS the result was 450 nM (3 of 3 replicates).

In this assay the parent's reference entry averaged 4.4 nM; its copy inside this library read 13 µM (one replicate of three).
Three control strains display no target. For library AAYL49, 15% of the pairings with them gave a signal, with a median of 11 µM and one signal in twenty below 680 nM, so weak values seen in few replicates may be background.